# Laboratory results as given in patent US20150018486A1, “Nanotherapeutic Colloidal Metal Compositions and Methods” (Cytlmmune Sciences, Inc., priority 2007, published 2015).
# Tested on: rabbits
# Assay: IL-2 toxicity and antibody response in rabbits
# Assay type: in vivo
# Settings: 1 mg IL-2 per 3 kg animal, 3 rabbits; for toxicity: every third day for a two-week period
# Method: However, the toxic side effects of administration of IL-2 result in the death of a significant number of the patients. In contrast, if a vector composition comprising at least IL-2 and a colloidal metal is administered, little or no toxicity is observed and a strong immune response occurs in the recipient. The doses previously used for IL-2 therapy have been on the order of 21×10^6 units of IL-2 per 70 kg person per day (7×10^6 units of IL-2 per 70 kg person TID). One unit equals approximately 50 picograms, 2 units equals approximately 0.1 nanograms, so 20×10^6 units equals 1 milligram. In effect, the studies of the effects of the administration of agents described herein have included doses of more than 20 times higher than that previously given to humans. […] A “positive antibody response” as used herein is defined as a three to fourfold increase in specific antibody reactivity, as determined by direct ELISA, comparing the post-immunization bleed with the preimmunization bleed. A direct ELISA is done by binding IL-2 onto a microtiter plate, and determining the quantity of IgG bound to the IL-2 on the plate, by goat anti-rabbit IgG conjugated to alkaline phosphatase. Therefore, it is thought that the biological effects of the IL-2 remain.
Substance,toxicity,antibody response (direct ELISA) (every third day for two weeks)
IL-2: Interleukin-2,two of the animals died,–
IL-2 colloidal gold vector: same dose of IL-2 used in vector compositions comprising colloidal gold,no toxicity was observed,significant antibody response resulted in all three animals
